Reference: patent publication US5215915A, “Cloned gene encoding rat D1B dopamine receptor” (Duke University, priority 1991, dated 1993)

Protein sequences, listed by entry. Tags and fused reporters are not part of them. Lines headed by an entry give the natural chain unless they say otherwise; changes in a name come on top.
UniProt P21728, whole entry: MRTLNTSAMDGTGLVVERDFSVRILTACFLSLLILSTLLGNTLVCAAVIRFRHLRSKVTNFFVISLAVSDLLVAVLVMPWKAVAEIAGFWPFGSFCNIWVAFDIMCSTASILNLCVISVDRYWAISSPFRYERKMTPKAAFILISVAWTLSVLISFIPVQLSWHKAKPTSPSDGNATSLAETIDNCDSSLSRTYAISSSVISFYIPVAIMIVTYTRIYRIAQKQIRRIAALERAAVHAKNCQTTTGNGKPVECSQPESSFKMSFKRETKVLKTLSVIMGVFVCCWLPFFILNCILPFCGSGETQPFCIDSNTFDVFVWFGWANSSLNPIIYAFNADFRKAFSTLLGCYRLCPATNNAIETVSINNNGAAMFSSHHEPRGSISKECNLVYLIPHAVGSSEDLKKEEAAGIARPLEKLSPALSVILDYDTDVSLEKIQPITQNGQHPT

Biological target: T1, HUMAN D1A RECEPTOR (Homo sapiens, UniProt P21728)
T1 construct: expressed in transfected cells; host or cells: COS-7 cells (transient), pCMV5-D1
Assay: Competition binding against [^125 I]SCH 23982 in membranes of COS-7 cells transfected with pCMV5-D1
Details: [^125 I]SCH 23982 competition, COS-7 cell membranes, 1 hr, room temperature; read-out: Equilibrium dissociation constant (KD), human D1A receptor

A Kd of 0.00065 µM was found for cis-piflutixol in this work.
A Kd of 0.024 µM was found for `OCCN1CCN(CCCC2c3ccc(F)cc3Sc3ccc(C(F)(F)F)cc32)CC1` (stereo not drawn) [CIS-TEFLUTIXOL, cis-teflutixol] in this work.
